Measurements: patent publication US20220380306A1, “ASTAXANTHIN ESTERS AND METHODS OF USE THEREOF” (CARDAX,INC., priority 2019, published 2022)

Experiment: Hydrolysis of ADMG compared to ADSa in solution or under basic conditions (NaHCO3 / Na2CO3)
Format: physicochemical
Conditions: 16 hours
Description: Hydrolysis of ADMG compared to ADSa in solution or under basic conditions: To a 10 mL brown bottle was added the ADMG 2HCl (5 mg) or ADSa 2HCl (5 mg) and methanol (1 mL), followed by adding saturated aq NaHCO3 or Na2CO3 (0.5 mL) at rt. The mixture was stirred at room temperature or 50° C. The reaction was monitored by HPLC and LCMS after 16 hours. The results are shown in the below table, where A indicates starting diester (ADSa or ADMG), B indicates the hydrolyzed monoester, and C indicates free astaxanthin. “Byproduct” indicates a material that was formed other than the diester, monoester, or free astaxanthin.

[1] = methanol + saturated aq NaHCO3, 50° C.
[2] = methanol + saturated aq NaHCO3, rt

B (hydrolyzed monoester) [1]: 2% B | C (free astaxanthin) [1]: 90% C | A (starting diester) [2]: 7% A | B (hydrolyzed monoester) [2]: 32% B | C (free astaxanthin) [2]: 51% C
Substance: Astaxanthin Sarcosine Diester [ADSa, reference compound]
